Target: Astrosclerin-3 (Astrosclera willeyana, UniProt A6YCJ1)
Experiment: Inhibition of Astrosclera willeyana recombinant GST-tagged astrosclerin 3 expressed in Escherichia coli BL21-DE3-RIPL cells preincubated for 15 mins measured for 10 to 100 secs by stopped flow CO2 hydration assay

Sequences of proteins named here, by UniProt entry; tags and fusion partners are left off. Residues count along the entry.
UniProt A6YCJ1, 23-292 limits assumed: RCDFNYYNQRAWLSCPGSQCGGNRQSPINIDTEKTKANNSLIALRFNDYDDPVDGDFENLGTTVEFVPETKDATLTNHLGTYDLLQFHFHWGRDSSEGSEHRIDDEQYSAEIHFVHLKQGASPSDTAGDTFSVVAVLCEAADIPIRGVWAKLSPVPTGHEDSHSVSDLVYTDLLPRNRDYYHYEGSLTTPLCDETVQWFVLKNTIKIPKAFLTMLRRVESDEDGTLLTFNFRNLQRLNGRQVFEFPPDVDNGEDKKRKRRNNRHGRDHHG

O=[As](O)(O)c1ccccc1
Ki: 72 µM

Reference: ChEMBL document CHEMBL1949581, “Anion inhibition studies of an α-carbonic anhydrase from the living fossil Astrosclera willeyana” (Bioorg Med Chem Lett, 2012)
